Results published in patent US6605639B1, “Ligands of nuclear receptor” (Nuclear Receptor Research, Ltd., priority 1998, dated 2003).

The chains behind the UniProt entries cited, without tags or fusion partners.
UniProt P10276, whole entry: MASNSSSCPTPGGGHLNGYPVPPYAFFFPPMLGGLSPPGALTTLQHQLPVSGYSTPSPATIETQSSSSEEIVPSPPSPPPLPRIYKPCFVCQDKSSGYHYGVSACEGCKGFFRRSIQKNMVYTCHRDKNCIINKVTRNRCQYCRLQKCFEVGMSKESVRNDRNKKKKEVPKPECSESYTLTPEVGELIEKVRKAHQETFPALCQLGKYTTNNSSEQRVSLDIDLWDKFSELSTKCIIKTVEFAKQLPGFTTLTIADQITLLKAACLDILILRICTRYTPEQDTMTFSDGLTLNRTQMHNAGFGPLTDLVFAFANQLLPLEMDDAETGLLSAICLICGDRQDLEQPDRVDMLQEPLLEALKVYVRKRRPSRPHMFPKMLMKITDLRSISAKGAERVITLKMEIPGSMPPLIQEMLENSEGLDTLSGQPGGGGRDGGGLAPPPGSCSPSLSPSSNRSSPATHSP

Molecular target: RAR (Homo sapiens, UniProt P10276)
Test: RAR reporter gene (luciferase) transfer assay in COS-1 cells
Conditions: 10^−7 M; control lot = 1

degree of increase in the luciferase activity, RAR vector: 36
Structure (SMILES): CC1=C(/C=C/C(C)=C\C=C\C(C)=C\C(=O)O)C(C)(C)CCC1 [9-cis Retinoic acid, reference compound]
